According to patent publication US20140349924A1 (Novo Nordisk A/S, priority 2007, published 2014):

Experiments:
[1] = absorbed into portal circulation; cited from earlier work
[2] = test system: freshly excised rat gut sacs (proximal jejunum); settings: presence vs absence of 10% PG; 1 mM; 2 h; culture medium pH 7.4, 37° C.
Method: (§1) Freshly excised rat small intestine was rinsed in ice cold saline. Then gut sacs of 4 cm each in length were prepared. […] Thereafter the filled gut sacs were incubated for 2 h in 0.5 ml culture medium pH 7.4 at 37° C.

[3] = test system: freshly excised rat gut sacs (proximal jejunum); assay: Rat gut sac model, MALDI-MS analysis of degradation products; settings: with propylene glycol vs buffer control, 2 h
Method: as §1
MALDI-MS (Matrix-assisted laser desorption/ionization-mass spectrometry) was used analyze degradation products. Aliquots (1 μl) of acidified sample solutions and reference samples were deposited on a PAC384 MALDI plate, blotted with filter paper after 30 s and washed twice with 5 μl of 15 mM ammonium phosphate in 0.1% TFA. The samples were analyzed using Autoflex TofTof (Bruker Daltonics, USA).

Substance: insulin
- Insulin retained and metabolized in first passage through the liver [1]: roughly 60%
- Permeated insulin across intestinal mucosa (HPLC) [2]: permeates to a higher content
- Degradation of insulin (MALDI-MS) [3]: reduces the degradation
